# Binding of CDR-mutated scFvs to a peptide of the spike HR2 region

Data: MIT Lincoln Laboratory AlphaSeq set, Li et al. 2023, doi:10.1038/s41467-023-39022-2, as distributed in FLAb.

Target peptide (SARS-CoV-2 spike, HR2 region): PDVDLGDISGINAS

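The parent was found by panning a naive human phage display library on the peptide. Designed CDR sequences, proposed from the first random library and measured here. Group labels follow the data file (En: ensemble of fine-tuned language models; GP: Gaussian process model; HC: hill climbing; Gen: genetic algorithm; Gibbs: Gibbs sampling; a sequence that several methods proposed may carry one label only). Affinity was read by AlphaSeq, a pooled yeast mating assay with surface-displayed partners. Binding brings cells together so that they mate, and sequencing counts the barcode pairs among the diploids. The ratio of observed to expected reads was calibrated, replicate by replicate, on BCL2-family standards whose Kd was known from biolayer interferometry. The assay was run in six technical replicates.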

Parent scFv Ab-14: VH joined to VL by a 15-residue (Gly4Ser)3 linker. Changes lie in the light chain CDRs alone.
VH: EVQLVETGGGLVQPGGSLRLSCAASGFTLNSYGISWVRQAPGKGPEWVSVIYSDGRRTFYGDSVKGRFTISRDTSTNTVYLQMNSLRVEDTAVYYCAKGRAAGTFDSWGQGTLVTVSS
VL: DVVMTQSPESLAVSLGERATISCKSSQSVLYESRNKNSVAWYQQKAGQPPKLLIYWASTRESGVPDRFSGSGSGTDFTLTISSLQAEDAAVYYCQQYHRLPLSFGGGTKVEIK

Variants are written as CDR1, CDR2 and CDR3 of the light chain (limits as in the source). Parent: KSSQSVLYESRNKNSVA, WASTRES, QQYHRLPLS. This list holds designs with more than six substitutions. Each Kd is an estimate from the mating assay, the geometric mean of the replicates in which the pair was seen; lower is stronger. "nd" means that the variant was in the library but no mating with the target was seen in any replicate; the authors take this as a sign of poor binding, and no number exists. Order: sorted from the lowest average up, undetected variants last. A sequence measured in both rounds can read differently, since the two assays cover different ranges. The parent sequence was in this pool as ten entries: three were never detected, three once, and four in most replicates, with averages from 2.2 nM to 240 nM. The authors' rule: three or more of the six replicates give a measured affinity, fewer mean a poor binder. Empty control strains, which show no peptide, gave a signal in 4% of pairings with all light chain designs; the median was 430 nM and 95% of these signals were weaker than 38 nM. No background was subtracted. Also given: how often the same scFv was detected with the empty control strains.

KLSQSDWMESRNPNNVA / HASTRES / QQYHRLPLS [GP_Gibbs]: 320 pM (6 of 6 replicates; controls 0 of 18).
MISDLTMYGSRNVNSVA / DLSHRGS / QQYHRLPLS [En_HC]: 680 pM (6 of 6 replicates; controls 0 of 18).
NLQNGGSELSVWKRNIA / DANIRES / QQYFRLPLL [En_Gibbs]: 870 pM (6 of 6 replicates; controls 3 of 18).
RIFYGQERDIAHESSIA / NGMARVK / QQYHRLPLS [En_Gibbs]: 2.2 nM (6 of 6 replicates; controls 0 of 18).
VLAMESYQKSRHESNIA / GANMRAQ / QQYARLPFQ [En_Gibbs]: 2.4 nM (6 of 6 replicates; controls 0 of 18).
TIGQSVHETSRIKNSVA / HATMRED / QQYDRLPLS [En_HC]: 2.4 nM (6 of 6 replicates; controls 1 of 18).
TLVQSVMGSSRTKNSVA / NAETRYD / QHYHRLPLS [En_HC]: 3.2 nM (6 of 6 replicates; controls 1 of 18).
RIQDHHAEGEMRHSSIA / EESYRMD / QQYSRLPLA [En_Gibbs]: 3.2 nM (6 of 6 replicates; controls 0 of 18).
KESQSEPGESRNKNSVA / NAMQRMS / QQYHRLPLS [GP_Gibbs]: 3.4 nM (6 of 6 replicates; controls 2 of 18).
SLKYQQDGNGLQRQAVA / GVGLKEE / QQYGRLPLT [En_Gibbs]: 3.8 nM (6 of 6 replicates; controls 0 of 18).
TLSHSTDLEIVHKNSIA / DLMTRES / QQYDRLPLS [En_HC]: 4.1 nM (6 of 6 replicates; controls 1 of 18).
QLGQTIWADIMNKKSIA / AEETLID / QQYNRLPLS [En_Gibbs]: 5.3 nM (6 of 6 replicates; controls 1 of 18).
TIAQSMVYLSNLKNSIA / QAETRED / QQYHRLPIS [En_HC]: 5.4 nM (6 of 6 replicates; controls 1 of 18).
KHEEGVEYESRNKNSVA / NASTRLS / QQYHRLPLS [GP_Gibbs]: 6.4 nM (6 of 6 replicates; controls 0 of 18).
MISDLTMYGSRNKNSVA / DLSTRGS / QQYERLPLS [En_HC]: 7.2 nM (6 of 6 replicates; controls 1 of 18).
KISQMSRVGSTHSNSIA / EEATRSK / QQYHRLPLA [En_Gen]: 9.4 nM (6 of 6 replicates; controls 1 of 18).
RVQINSGHSDMHWKSIA / SASIRAS / QQYARLPLE [En_Gibbs]: 10 nM (6 of 6 replicates; controls 0 of 18).
HISMITLQGMRQKNSVA / QMTTREN / QQYDRLPLA [En_Gen]: 13 nM (6 of 6 replicates; controls 1 of 18).
SLSVFNLTDANKWDSVA / NSAATRI / QQYQRLPLS [En_Gibbs]: 14 nM (4 of 6 replicates; controls 0 of 18).
MINMEVGIEDMKWNSVA / SADVRAF / QQYGRLPFS [En_Gibbs]: 15 nM (6 of 6 replicates; controls 0 of 18).
KVAQGIFDGKRHSHNIA / EVSHLCD / QQYSRLPLE [En_Gibbs]: 16 nM (6 of 6 replicates; controls 0 of 18).
MISQLYNMGSFAINSVA / QASVRND / QQYDRLPLI [En_Gen]: 25 nM (6 of 6 replicates; controls 0 of 18).
KISQMYRYEQQNHSSIA / EANTRLQ / QSYHRLPLS [En_HC]: 29 nM (5 of 6 replicates; controls 1 of 18).
KWSWSWLLESRWDNSVA / NASLRES / QQYHRLPLS [GP_Gibbs]: 31 nM (6 of 6 replicates; controls 1 of 18).
SLEMFTGMLNMYASSIA / NAHCLVQ / QQYYRLPIS [En_Gibbs]: 41 nM (1 of 6 replicates; controls 0 of 18).
TISQLMNMGQFAINSVA / QASIRNS / QQYDRLPLI [En_Gen]: 75 nM (6 of 6 replicates; controls 1 of 18).
HISMMVGTKGYNKNSVA / NAETRQD / QQYHRLPLS [En_HC]: 78 nM (6 of 6 replicates; controls 1 of 18).
IVSQLMLWGYTAKNSIA / EAETRIN / QQYHRLPLI [En_Gen]: 82 nM (5 of 6 replicates; controls 1 of 18).
MFSQLVYTGSRTKNAVA / QASTREN / QQYHRLPLA [En_HC]: 110 nM (6 of 6 replicates; controls 2 of 18).
TISQSWNMTSRGINSVA / QAEMRES / QQYDRLPLS [En_HC]: 170 nM (6 of 6 replicates; controls 0 of 18).
IITQSVMQESRNKSNVA / NTSERES / QQYDRLPLI [En_HC]: 280 nM (2 of 6 replicates; controls 0 of 18).
MFDQQTMNENDKNNSVA / EENHLYN / QQYAQLPLI [En_Gibbs]: 470 nM (3 of 6 replicates; controls 0 of 18).
KLLQEVTGHSRQRNSVA / HNSTRED / QQYDRLPLI [En_HC]: 530 nM (3 of 6 replicates; controls 1 of 18).
KISMSYRFESQAKNSIA / EMTTREE / QSYHRLPLS [En_HC]: 1.0 µM (5 of 6 replicates; controls 0 of 18).
TISQSTYWESFNKNSVA / QTSTRLE / QDYDRLPLS [En_HC]: 1.7 µM (3 of 6 replicates; controls 1 of 18).
QLAVDRGQEYKMGAAIA / GKTTVED / QQYARLPLS [En_Gibbs]: nd (0 of 6 replicates; controls 0 of 18).
TVSQVHEMLTRNKNSVA / DMNTRES / QQYDRLPLS [En_HC]: nd (0 of 6 replicates; controls 0 of 18).

Picked from the list: the 6 lowest averages where every replicate gave a value.

| CDR-L1 | CDR-L2 | CDR-L3 | group | apparent Kd | seen in | empty controls |
|---|---|---|---|---|---|---|
| KLSQSDWMESRNPNNVA | HASTRES | QQYHRLPLS | GP_Gibbs | 320 pM | 6 of 6 | 0 of 18 |
| MISDLTMYGSRNVNSVA | DLSHRGS | QQYHRLPLS | En_HC | 680 pM | 6 of 6 | 0 of 18 |
| NLQNGGSELSVWKRNIA | DANIRES | QQYFRLPLL | En_Gibbs | 870 pM | 6 of 6 | 3 of 18 |
| RIFYGQERDIAHESSIA | NGMARVK | QQYHRLPLS | En_Gibbs | 2.2 nM | 6 of 6 | 0 of 18 |
| VLAMESYQKSRHESNIA | GANMRAQ | QQYARLPFQ | En_Gibbs | 2.4 nM | 6 of 6 | 0 of 18 |
| TIGQSVHETSRIKNSVA | HATMRED | QQYDRLPLS | En_HC | 2.4 nM | 6 of 6 | 1 of 18 |